In this assay the target is T1, vanilloid receptor-1 (VR1) (Rattus norvegicus, UniProt O35433).
T1 construct: expressed in transfected cells; host or cells: Chinese Hamster Ovary cells (CHO, ATCC CCL-61), Tet-off inducible expression
Put plainly: [3H]RTX competition binding assay, VR1-expressing CHO cells. Particulars: displacement of bound [3H]RTX; mean±SEM, 3 experiments. The procedure:
The binding affinity activity of the target compounds for vanilloid receptor-1 was measured by an in vitro receptor binding affinity assay. In the receptor binding assay, the compounds were evaluated for their ability to displace bound [^3H]RTX from the receptor. The results are expressed in terms of Ki values (mean±SEM, 3 experiments) which represent the concentration of the non-radioactive ligand that displaces half of the bound labeled RTX.
The VR receptor binding affinity activity of the inventive compounds was measured by using Chinese Hamster Ovary (CHO, ATCC, No. CCL-61) cell whose cDNA of VR1 (pUHG102 VR1 plasmid) was transfected, which can control the expression of VR1 according to the presence of tetracycline and Tetracycline on/off system (pTet off regulatory plasmid, Clontech. Inc., USA) that the expression of VR1 is induced by removing tetracycline from the medium. […]
Experiments were designed to assess inhibition of specific [^3H]RTX binding to membranes by non-radioactive compounds. […] Non-specific binding assay was measured after mixing 100 nM of non-radioactive RTX thereto. […] The tips of tube containing above precipitate was cut off and the amount of bound radioisotope was determined by scintillation counter (LS6500, Beckman-Coulter, USA). The measurement of binding was determined in triplicate in each experiment, and each experiment was repeated at least two times. […]

Chains of the proteins cited; added tags and fusions are not shown.
UniProt O35433, whole entry: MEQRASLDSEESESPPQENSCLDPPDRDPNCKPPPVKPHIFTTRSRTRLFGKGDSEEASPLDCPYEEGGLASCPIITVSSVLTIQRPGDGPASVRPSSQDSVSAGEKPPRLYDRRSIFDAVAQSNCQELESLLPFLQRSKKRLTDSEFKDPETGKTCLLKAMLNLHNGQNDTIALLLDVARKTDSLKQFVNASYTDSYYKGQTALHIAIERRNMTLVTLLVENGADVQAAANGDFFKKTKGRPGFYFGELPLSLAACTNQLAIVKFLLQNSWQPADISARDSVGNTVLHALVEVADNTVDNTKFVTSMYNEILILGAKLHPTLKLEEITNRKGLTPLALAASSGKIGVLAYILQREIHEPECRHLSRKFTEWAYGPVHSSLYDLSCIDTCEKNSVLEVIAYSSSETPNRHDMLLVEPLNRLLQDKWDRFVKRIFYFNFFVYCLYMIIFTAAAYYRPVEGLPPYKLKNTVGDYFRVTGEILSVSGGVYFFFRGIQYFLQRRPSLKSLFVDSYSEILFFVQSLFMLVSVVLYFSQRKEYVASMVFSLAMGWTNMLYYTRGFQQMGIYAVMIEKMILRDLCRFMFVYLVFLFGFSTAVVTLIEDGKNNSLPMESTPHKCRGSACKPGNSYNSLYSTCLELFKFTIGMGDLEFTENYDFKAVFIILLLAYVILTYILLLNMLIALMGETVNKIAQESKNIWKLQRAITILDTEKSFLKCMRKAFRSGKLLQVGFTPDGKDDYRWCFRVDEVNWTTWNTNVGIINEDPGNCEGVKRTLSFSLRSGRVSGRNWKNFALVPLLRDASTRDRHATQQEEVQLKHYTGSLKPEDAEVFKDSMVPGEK

Take `CC(C)(C)c1ccc(CN(O)C(=S)NCc2ccc(NS(C)(=O)=O)c([N+](=O)[O-])c2)cc1` [Compound 32, N-(4-tert-butylbenzyl)-N-hydroxy-N-[4-(methylsulfonylamino)-3-nitrobenzyl]thiourea]: the Ki (commonly a measure of affinity in units of concentration, obtained from inhibition or displacement) came out at 1330 nM.

(Values after patent publication US20050288369A1, “Novel n-hydroxy thiourea, urea and amide compounds and the pharmaceutical compositions comprising the same” (priority 2002, published 2005).)
